Data taken from BindingDB's records for 15357993.

Protein sequences, listed by entry. Tags and fused reporters are not part of them. Residues count along the entry.
UniProt P40881, 35-247 limits assumed: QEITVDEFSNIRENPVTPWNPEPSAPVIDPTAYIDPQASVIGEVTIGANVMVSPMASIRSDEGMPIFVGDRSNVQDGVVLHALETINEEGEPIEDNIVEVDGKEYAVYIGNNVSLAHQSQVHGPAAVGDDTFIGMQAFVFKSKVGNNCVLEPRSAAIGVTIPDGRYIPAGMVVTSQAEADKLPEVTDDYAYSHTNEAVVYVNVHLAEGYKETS

Molecular target: Carbonic anhydrase (Methanosarcina thermophila (strain ATCC 43570 / DSM 1825 / OCM 12 / VKM B-1830 / TM-1), UniProt P40881)

**Q.** With [N-]=[N+]=[N-] as the molecule, how does the Ki read?
**A.** 5.8 mM
